## AlphaSeq binding of Ab-14 light chain variants to a spike HR2 peptide

Reference: Li et al. 2023, doi:10.1038/s41467-023-39022-2. File: FLAb, binding data.

All variants were tested on one target, the spike HR2 peptide PDVDLGDISGINAS (SARS-CoV-2).

Ab-14 is the parent antibody, in scFv form: VH, then three GGGGS repeats, then VL. The heavy chain is unchanged in all variants.
VH: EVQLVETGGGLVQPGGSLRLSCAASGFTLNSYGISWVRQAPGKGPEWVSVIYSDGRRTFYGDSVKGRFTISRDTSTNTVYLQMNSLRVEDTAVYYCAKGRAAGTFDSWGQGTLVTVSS
VL: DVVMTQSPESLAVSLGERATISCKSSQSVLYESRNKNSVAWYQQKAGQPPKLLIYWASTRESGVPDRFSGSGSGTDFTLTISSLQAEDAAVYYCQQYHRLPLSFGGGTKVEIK

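Phage display of a naive human antibody library on the peptide gave the parent. The variants were designed computationally from a first round of random CDR variants and then made and measured. Several design methods are mixed in this list. In AlphaSeq, yeast of one mating type display the scFv and yeast of the other type display the target. Mating (16 h, 30 °C) was followed by selection of diploids and sequencing of their barcodes. Read counts were normalised to the haploid input and turned into Kd by a linear fit to BCL2-family pairs of known affinity, for each replicate. Each pool was mated in six replicate cultures.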

Variants are written as CDR1, CDR2 and CDR3 of the light chain (limits as in the source). Parent: KSSQSVLYESRNKNSVA, WASTRES, QQYHRLPLS.
This list holds designs with more than six substitutions.
Values are apparent Kd, the geometric mean of the replicates that gave a signal; lower means stronger binding.
"no signal" means that the variant was in the library but no mating with the target was seen in any replicate; the authors take this as a sign of poor binding, and no number exists.
The authors' rule: three or more of the six replicates give a measured affinity, fewer mean a poor binder.
As a blank, each scFv also met three strains without target: over all light chain designs, 4% of these pairings were detected, typically at 430 nM and seldom below 38 nM.
Values of this round are not directly comparable with the first-round values of the same sequences.

Variant SLQYLPEESLIGASAIA / DVNIAVM / QQYSRLPLA showed 12 nM (6 of 6 replicates). Variant KWEFSVLGESRNKNAVA / SASQREQ / QQYHRLPLS showed 1.2 nM (6 of 6 replicates). Variant KVYWGVDYGDRNKNSVA / HASRRES / QQYHRLPLS showed 13 nM (5 of 6 replicates). Variant IVSQLMLWGYHAKNSIA / EAQTRVN / QQYDRLPLF showed 140 nM (6 of 6 replicates). Variant SLYEAMQTGGLHTSNIA / DVNQQMR / QHYMRLPLA showed 1.0 nM (6 of 6 replicates). Variant KLTMMFQHTSRNKNNIA / ERSTREE / QQYHHLPLS gave 5.2 nM (6 of 6 replicates). Variant KMSKMVMEGSRNKNSVA / EASQREE / QQYHRLPLS showed 600 pM (6 of 6 replicates).

For TLYGLTNSMSKNKDNVA / EMSTREL / QQYDRLPLM, the assay gave no signal (0 of 6 replicates). Variant QFQFEDVQYTVNEQAIA / EENQRMQ / QQYFRLPLI showed 48 nM (6 of 6 replicates). For NITYAAEQLQRIDSSVA / AGSARCR / QQYYRLPLS, the assay gave 3.8 nM (6 of 6 replicates). For TISQSLLMQTSHKNNVA / GEETRYS / QQYHRLPLS, the assay gave 2.5 nM (6 of 6 replicates). Variant MISGSVMMESRLKNSVA / QTTTRES / QQYDRLPLS showed 4.5 nM (6 of 6 replicates). Variant KLGMWMYWPTEAKYAIA / QDEMRVH / QQYDRLPLI showed no signal (0 of 6 replicates). For KLQQSVGYESRNQNAVA / EASQREE / QQYHRLPLS, the assay gave 950 pM (6 of 6 replicates).

Variant GDFFQMDGPYEEKENVA / NGNIREP / QQYQRLPLT showed 1.7 nM (6 of 6 replicates). Variant TISQMTSLFSQTINNVA / EVSMREP / QQYDRLPLI showed 11 nM (6 of 6 replicates). For TISQSAQMESHNKNSVA / DLNTRGS / QQYDRLPLS, the assay gave 6.3 nM (6 of 6 replicates). Variant KLSQDDLYESRNCNNVA / QASTREQ / QQYHRLPLS showed 4.4 nM (6 of 6 replicates). For KLGQLTAIESRNNNSVA / QMDTRES / QQYDRLPLS, the assay gave 12 nM (6 of 6 replicates). For QLMEEQSMRTEATWNIA / QGEQKVH / QQYFRLPLA, the assay gave 14 nM (6 of 6 replicates). With KLMNQMGGIEQMKNSIA / NLELGAR / QQYAHLPLV the result was 360 nM (6 of 6 replicates).

Variant KISMLSRYESQAKNSIA / EMSRREN / QQYHRLPLS gave 4.3 nM (6 of 6 replicates). With KLDMWEWYGSRNKNSVA / SASTRCS / QQYHRLPLS the result was 910 pM (6 of 6 replicates). With KLYFNVGTMSLNKQSIA / DMERRED / QQYHRLPLS the result was 9.9 nM (6 of 6 replicates). Variant MISDLTMYGSRTKNSVA / DLSTRGS / QQYHRLPLS gave 4.2 nM (6 of 6 replicates). Variant LLWQDMYNQRNQANAVA / EGNILAN / QQYARLPFS showed 11 nM (6 of 6 replicates). For TLTQVQGMESHQKNSVA / DLSTRGS / QQYHRLPLS, the assay gave 540 pM (6 of 6 replicates). Variant ALGDVTRMESNKKDSIA / DMSNRED / QQYHRLPLS showed 700 pM (6 of 6 replicates).

With KIYQLGLGSQKIMRNIA / QTSTREL / QSYNRLPLS the result was 2.8 nM (6 of 6 replicates). For KLSQSVLLESRNWNAVA / MASTRMD / QQYHRLPLS, the assay gave 2.0 nM (6 of 6 replicates). For TLYGLSMSMSKNKNNVA / EMTTRLK / QQYDRLPLV, the assay gave 4.8 nM (6 of 6 replicates). Variant KMKQSIEGNPKNTNSIA / DVDSVTE / QQYARLPLF gave 4.2 nM (6 of 6 replicates). With TISQLHNMGTFAINSVA / QASIRNA / QQYDRLPLM the result was 1.2 nM (6 of 6 replicates). Variant MIYGMDRELGRAANSIA / DNVTRYD / QQYNRLPLD gave 410 nM (5 of 6 replicates). Variant MISQLGNMGQFAINSVA / QASLRND / QQYDRLPLI gave 17 nM (6 of 6 replicates).

Variant TLSDLMYMESRNYNSVA / DLVKRED / QQYHRLPLS showed 530 pM (6 of 6 replicates). Variant KLSISYLFESQEKNSIA / ENSTREQ / QHYHRLPLS showed no signal (0 of 6 replicates). Variant KLRQSTAYLSENKNSVA / ELTTRGK / QQYFRLPLS gave 4.1 nM (6 of 6 replicates). For MFSQLTYTGSRARNAVA / QASTREN / QQYHHLPLT, the assay gave 12 nM (6 of 6 replicates). Variant KLSPSVNGQSRNKNSVA / EASTREQ / QDYHRLPLS gave 60 nM (3 of 6 replicates). For KVEQLVLPEDRNKNSVA / NASTRED / QQYHRLPLS, the assay gave 1.3 nM (6 of 6 replicates). For NFSQMVLTGSTLKNSVA / HATTREE / QQYHRLPLI, the assay gave 7.3 nM (6 of 6 replicates).

With KLSQSWLYGQRNANSVA / NASQREE / QQYHRLPLS the result was 650 pM (6 of 6 replicates). For SFDLTKSGMENERYSIA / ETSTLMT / QDYARLPLY, the assay gave 3.6 nM (6 of 6 replicates). For TISQVHEMLSRNKNSVA / DMNTRES / QQYDRLPLS, the assay gave 50 nM (2 of 6 replicates). Variant RLRNSWNGWYNDWASIA / DANMYAP / QQYQRLPLA showed 59 nM (6 of 6 replicates). With TLYGLSNSMSINKNSVA / EMTTREE / QQYDRLPLI the result was 98 nM (6 of 6 replicates). For KISQMYRYEQQNSGSIA / EVSTRLN / QSYHRLPLS, the assay gave 32 nM (6 of 6 replicates). Variant KLQQSELYEERNSNSVA / SASLREL / QQYHRLPLS showed 3.4 nM (6 of 6 replicates).

For KLQMSELPESRNKNSVA / WASLREM / QQYHRLPLS, the assay gave 52 nM (6 of 6 replicates).

A selection of 4 entries from above:

CDR-L1	CDR-L2	CDR-L3	apparent Kd	detected
GDFFQMDGPYEEKENVA	NGNIREP	QQYQRLPLT	1.7 nM	6 of 6
KVYWGVDYGDRNKNSVA	HASRRES	QQYHRLPLS	13 nM	5 of 6
KLQQSVGYESRNQNAVA	EASQREE	QQYHRLPLS	950 pM	6 of 6
QFQFEDVQYTVNEQAIA	EENQRMQ	QQYFRLPLI	48 nM	6 of 6